Laboratory results as given in patent EP0739343B1, “WATER SOLUBLE ONIUM SALT OF TAXO-DITERPENOID” (THE SCRIPPS RESEARCH INSTITUTE, priority 1994, dated 1995).

Tested on: human lung carcinoma xenografts
Assay: Lung tumor xenograft nude mouse model
Format: in vivo, nude mice
Settings: A549 implanted S.C., I.P. on day 1, 3 and 7, taxol-2'-MPT 23.9 mg/kg; preliminary data; 0.001 p-value different from controls

CC(=O)O[C@H]1C(=O)[C@@]2(C)[C@H]([C@H](OC(=O)c3ccccc3)[C@]3(O)C[C@H](OC(=O)[C@H](Oc4cccc[n+]4C)[C@@H](NC(=O)c4ccccc4)c4ccccc4)C(C)=C1C3(C)C)[C@]1(OC(C)=O)CO[C@@H]1C[C@@H]2O [compound 2, Taxol-2'-MPT]
control of tumor growth: at least comparable to that of taxol
